Data as given in ChEMBL document CHEMBL1145929, “Syntheses and binding studies of new [(aryl)(aryloxy)methyl]piperidine derivatives and related compounds as potential antidepressant drugs with high affinity for serotonin (5-HT) and norepinephrine (NE) transporters” (J Med Chem, 2003).

Sequences of proteins named here, by UniProt entry; tags and fusion partners are left off.
UniProt P31652, whole entry: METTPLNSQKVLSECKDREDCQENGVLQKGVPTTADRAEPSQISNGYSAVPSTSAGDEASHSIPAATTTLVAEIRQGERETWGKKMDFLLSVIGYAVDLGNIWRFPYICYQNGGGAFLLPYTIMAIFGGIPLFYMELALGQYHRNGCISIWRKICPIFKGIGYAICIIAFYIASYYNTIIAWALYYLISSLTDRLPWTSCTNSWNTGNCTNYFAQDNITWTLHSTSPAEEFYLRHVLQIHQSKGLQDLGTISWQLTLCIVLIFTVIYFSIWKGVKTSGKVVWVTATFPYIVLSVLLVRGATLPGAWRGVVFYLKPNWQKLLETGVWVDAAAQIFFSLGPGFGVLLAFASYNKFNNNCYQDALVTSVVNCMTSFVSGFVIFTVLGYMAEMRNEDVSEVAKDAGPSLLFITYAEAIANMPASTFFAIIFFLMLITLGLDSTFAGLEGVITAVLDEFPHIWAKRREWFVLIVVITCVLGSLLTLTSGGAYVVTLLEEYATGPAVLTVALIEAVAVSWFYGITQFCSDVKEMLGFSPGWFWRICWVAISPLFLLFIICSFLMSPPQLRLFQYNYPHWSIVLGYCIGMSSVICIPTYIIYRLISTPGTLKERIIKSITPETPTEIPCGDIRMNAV
UniProt P23977, whole entry: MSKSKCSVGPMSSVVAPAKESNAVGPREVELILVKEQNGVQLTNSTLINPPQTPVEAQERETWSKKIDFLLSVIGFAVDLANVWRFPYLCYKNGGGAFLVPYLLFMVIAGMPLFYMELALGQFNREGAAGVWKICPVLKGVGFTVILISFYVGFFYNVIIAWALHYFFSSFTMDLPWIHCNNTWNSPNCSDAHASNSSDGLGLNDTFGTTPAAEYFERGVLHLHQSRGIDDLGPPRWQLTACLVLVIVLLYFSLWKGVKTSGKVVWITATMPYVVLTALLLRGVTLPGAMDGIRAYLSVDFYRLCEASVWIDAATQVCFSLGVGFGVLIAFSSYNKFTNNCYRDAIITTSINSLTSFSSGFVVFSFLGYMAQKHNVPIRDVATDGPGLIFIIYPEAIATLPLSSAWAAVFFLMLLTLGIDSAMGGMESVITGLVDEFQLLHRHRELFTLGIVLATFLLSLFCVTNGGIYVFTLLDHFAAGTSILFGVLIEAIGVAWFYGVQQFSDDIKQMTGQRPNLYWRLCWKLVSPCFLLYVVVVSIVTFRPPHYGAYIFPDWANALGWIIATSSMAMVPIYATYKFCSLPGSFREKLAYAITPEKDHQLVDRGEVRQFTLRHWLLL

How the values were obtained:
[1] = biological target: Sodium-dependent serotonin transporter (Rattus norvegicus, UniProt P31652); experiment: Binding affinity against serotonin transporter (SERT) by displacement of [3H]paroxetine in male wistar rats
[2] = biological target: Sodium-dependent dopamine transporter (Rattus norvegicus, UniProt P23977); experiment: Binding affinity against dopamine transporter (DAT) by displacement of [3H]WIN-35428 in male wistar rats

SMILES | IC50 [1] [nM] | IC50 [2] [nM]
CNCCC(Oc1ccccc1OC)c1ccccc1 (stereo not drawn) [NISOXETINE] | > 500 | > 500
Fc1ccc([C@@H]2CCNC[C@H]2COc2ccc3c(c2)OCO3)cc1 [PAROXETINE] | – | > 1000
